Measurements: patent US9512175B2, “Macrocyclic inhibitors of flaviviridae viruses” (Gilead Sciences, Inc., priority 2012, dated 2016)

Chains of the proteins cited; added tags and fusions are not shown.
UniProt P62937, whole entry: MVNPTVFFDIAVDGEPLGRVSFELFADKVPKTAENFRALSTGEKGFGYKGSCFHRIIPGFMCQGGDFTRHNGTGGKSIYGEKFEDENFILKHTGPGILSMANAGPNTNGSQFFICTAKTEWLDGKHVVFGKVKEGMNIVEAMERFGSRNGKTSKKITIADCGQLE

Target: cyclophilin A (Homo sapiens, UniProt P62937)
Assay: Cyclophilin A TR-FRET competitive binding assay
Details: read-out: TR-FRET; IC50 ranges; competition with CsA-Cy5 for His-tagged CypA, two-hour incubation

IC50: < 100 nM
Structure (SMILES): CC(C)[C@@H]1NC(=O)C(C)(C#N)/C=C/c2ccc3ccc(nc3c2)[C@@H](C)OC(=O)[C@@H]2CCCN(N2)C(=O)[C@H](C)NC1=O (single isomer, unassigned)
